Test results published in ChEMBL document CHEMBL5518245, “Development of an Imidazopyridazine-Based MNK1/2 Inhibitor for the Treatment of Lymphoma” (J Med Chem, 2024).
Activity calls are given as the source filed them. The calls are words filed in the database; no cut-off is given here.

Amino acid sequences for entries named in this document (tags omitted). A change or cut given only in a name is not applied to a line headed by its entry.
UniProt P27361, whole entry, looked up: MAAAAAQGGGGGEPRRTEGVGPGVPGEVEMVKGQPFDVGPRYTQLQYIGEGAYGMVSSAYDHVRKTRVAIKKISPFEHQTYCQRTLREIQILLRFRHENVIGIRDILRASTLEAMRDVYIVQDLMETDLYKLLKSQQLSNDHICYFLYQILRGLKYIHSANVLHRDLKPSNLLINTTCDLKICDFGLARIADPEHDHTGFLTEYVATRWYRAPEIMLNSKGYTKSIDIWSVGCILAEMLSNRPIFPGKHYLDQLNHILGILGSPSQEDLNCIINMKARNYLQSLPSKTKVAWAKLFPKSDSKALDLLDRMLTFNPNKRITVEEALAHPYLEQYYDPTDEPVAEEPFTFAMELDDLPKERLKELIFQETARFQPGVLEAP
UniProt P28482, whole entry, looked up: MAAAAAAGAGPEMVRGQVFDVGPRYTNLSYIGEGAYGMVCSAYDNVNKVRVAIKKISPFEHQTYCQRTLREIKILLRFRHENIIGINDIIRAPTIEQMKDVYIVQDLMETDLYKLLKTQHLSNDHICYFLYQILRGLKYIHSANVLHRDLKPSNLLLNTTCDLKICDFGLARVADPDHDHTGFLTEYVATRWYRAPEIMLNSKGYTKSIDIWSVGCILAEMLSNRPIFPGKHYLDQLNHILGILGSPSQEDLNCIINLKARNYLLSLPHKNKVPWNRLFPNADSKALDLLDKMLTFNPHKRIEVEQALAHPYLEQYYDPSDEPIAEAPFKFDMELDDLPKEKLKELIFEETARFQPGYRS
UniProt P11309, whole entry, looked up: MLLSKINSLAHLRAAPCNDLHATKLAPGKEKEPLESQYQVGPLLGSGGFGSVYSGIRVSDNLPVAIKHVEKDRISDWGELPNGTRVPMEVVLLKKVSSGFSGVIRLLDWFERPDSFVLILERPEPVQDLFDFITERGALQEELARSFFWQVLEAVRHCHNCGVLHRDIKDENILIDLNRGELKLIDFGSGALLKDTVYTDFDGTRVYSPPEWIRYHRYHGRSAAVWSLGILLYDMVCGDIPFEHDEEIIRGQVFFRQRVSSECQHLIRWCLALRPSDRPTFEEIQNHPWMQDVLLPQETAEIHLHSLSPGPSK
UniProt P45983: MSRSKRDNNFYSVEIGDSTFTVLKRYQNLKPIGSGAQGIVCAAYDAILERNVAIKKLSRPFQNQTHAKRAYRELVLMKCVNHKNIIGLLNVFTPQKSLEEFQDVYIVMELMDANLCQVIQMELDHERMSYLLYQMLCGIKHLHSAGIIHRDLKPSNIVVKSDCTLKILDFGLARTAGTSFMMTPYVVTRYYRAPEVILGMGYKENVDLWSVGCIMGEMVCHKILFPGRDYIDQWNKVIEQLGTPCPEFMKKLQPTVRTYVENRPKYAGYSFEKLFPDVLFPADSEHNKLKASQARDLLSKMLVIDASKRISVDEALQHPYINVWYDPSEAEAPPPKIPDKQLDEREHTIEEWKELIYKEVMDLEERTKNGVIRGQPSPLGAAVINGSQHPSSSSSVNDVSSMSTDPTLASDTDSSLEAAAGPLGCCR
UniProt Q13541: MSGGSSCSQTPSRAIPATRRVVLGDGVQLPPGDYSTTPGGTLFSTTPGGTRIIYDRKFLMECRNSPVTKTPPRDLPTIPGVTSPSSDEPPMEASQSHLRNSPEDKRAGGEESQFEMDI
UniProt Q9P1W9: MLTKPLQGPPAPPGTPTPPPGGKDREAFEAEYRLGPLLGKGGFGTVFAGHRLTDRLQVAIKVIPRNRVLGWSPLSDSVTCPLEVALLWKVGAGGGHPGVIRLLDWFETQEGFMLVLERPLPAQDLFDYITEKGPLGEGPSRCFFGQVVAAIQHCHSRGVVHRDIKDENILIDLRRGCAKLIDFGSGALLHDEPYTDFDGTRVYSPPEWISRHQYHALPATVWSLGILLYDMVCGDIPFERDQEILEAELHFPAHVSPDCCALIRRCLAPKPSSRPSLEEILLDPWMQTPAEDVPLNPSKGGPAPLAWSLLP

What was measured:
[1] = biological target: Mitogen-activated protein kinase; ERK1/ERK2 (Homo sapiens) (UniProt P27361+P28482); assay: Inhibition of ERK1/2 phosphorylation in human A549 cells at 1.25 to 5 uM incubated for 24 hrs by Western blot analysis; type: cell-based; conditions: dose 1.25-5 µM
[2] = biological target: Serine/threonine-protein kinase pim-1 (Homo sapiens) (UniProt P11309); assay: Inhibition of PIM1 (unknown origin) at 1 uM relative to control
[3] = biological target: Mitogen-activated protein kinase 8 (Homo sapiens) (UniProt P45983); assay: Inhibition of JNK1 (unknown origin) at 1 uM relative to control
[4] = biological target: Mitogen-activated protein kinase 9 (Homo sapiens) (UniProt P45984); assay: Inhibition of JNK2 (unknown origin) at 1 uM relative to control
[5] = biological target: Dual specificity mitogen-activated protein kinase kinase 1 (Homo sapiens) (UniProt Q02750); assay: Inhibition of MEK1 (unknown origin) at 1 uM relative to control
[6] = biological target: Eukaryotic translation initiation factor 4E-binding protein 1 (Homo sapiens) (UniProt Q13541); assay: Inhibition of 4EBP1 phosphorylation in human A549 cells incubated for 24 hrs by Western blot analysis; type: cell-based; conditions: dose 1.25-5 µM
[7] = biological target: Serine/threonine-protein kinase pim-2 (Homo sapiens) (UniProt Q9P1W9); assay: Inhibition of PIM2 (unknown origin) at 1 uM relative to control
DOHH-2 = assay: Antitumor activity against human DOHH-2 cells xenografted in mouse at 3 mg/kg, po administered for 17 days; type: functional, organism-based; conditions: time 17.0 day
[8] = biological target: Eukaryotic translation initiation factor 4E-binding protein 1 (Homo sapiens) (UniProt Q13541); assay: Inhibition of 4EBP1 phosphorylation in human A549 cells at 5 uM incubated for 24 hrs by Western blot analysis; type: cell-based

| Structure (SMILES) | inhibition [1] | inhibition [2] [%] | inhibition [3] [%] | inhibition [4] [%] | inhibition [5] [%] | inhibition [6] | inhibition [7] [%] | Activity (DOHH-2) | inhibition [8] |
| --- | --- | --- | --- | --- | --- | --- | --- | --- | --- |
| O=C(c1ccc(-c2ccc3ncc(-c4cc5ccccc5o4)n3n2)cc1)N1CCC(N2CCCCC2)CC1 | Active | 61.4 | 61.4 | 61.4 | 9.97 | Dose-Dependent Effect | 61.4 |  |  |
| C=CC(=O)N1CCC[C@@H](n2nc(-c3ccc(Oc4ccccc4)cc3)c3c(N)ncnc32)C1 |  |  |  |  |  |  |  | Active |  |
| Cc1cc(Nc2cc(N)ncn2)c(=O)n2c1C(=O)NC21CCCCC1 [TOMIVOSERTIB] |  |  |  |  |  |  |  |  | inactive |
| N[C@H]1CCCN(C(=O)c2ccc(-c3ccc4ncc(-c5cc6ccccc6o5)n4n3)cc2)C1 | Active | 61.4 | 61.4 | 61.4 | 13 |  | 61.4 |  |  |
